Assay results reported in patent US10040783B2 (Emory University, priority 2011, dated 2018).

The chains behind the UniProt entries cited, without tags or fusion partners. Where a name states a change or a piece, a line headed by the entry shows the natural chain unless it says otherwise.
UniProt P43116: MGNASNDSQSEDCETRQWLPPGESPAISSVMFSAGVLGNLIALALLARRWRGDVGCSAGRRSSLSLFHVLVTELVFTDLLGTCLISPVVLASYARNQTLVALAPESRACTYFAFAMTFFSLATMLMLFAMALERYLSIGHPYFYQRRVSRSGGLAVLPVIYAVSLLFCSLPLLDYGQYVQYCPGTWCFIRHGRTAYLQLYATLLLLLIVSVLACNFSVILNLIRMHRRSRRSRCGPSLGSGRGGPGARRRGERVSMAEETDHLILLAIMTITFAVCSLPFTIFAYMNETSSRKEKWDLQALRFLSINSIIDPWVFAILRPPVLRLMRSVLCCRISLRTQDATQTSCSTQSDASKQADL
UniProt P35408: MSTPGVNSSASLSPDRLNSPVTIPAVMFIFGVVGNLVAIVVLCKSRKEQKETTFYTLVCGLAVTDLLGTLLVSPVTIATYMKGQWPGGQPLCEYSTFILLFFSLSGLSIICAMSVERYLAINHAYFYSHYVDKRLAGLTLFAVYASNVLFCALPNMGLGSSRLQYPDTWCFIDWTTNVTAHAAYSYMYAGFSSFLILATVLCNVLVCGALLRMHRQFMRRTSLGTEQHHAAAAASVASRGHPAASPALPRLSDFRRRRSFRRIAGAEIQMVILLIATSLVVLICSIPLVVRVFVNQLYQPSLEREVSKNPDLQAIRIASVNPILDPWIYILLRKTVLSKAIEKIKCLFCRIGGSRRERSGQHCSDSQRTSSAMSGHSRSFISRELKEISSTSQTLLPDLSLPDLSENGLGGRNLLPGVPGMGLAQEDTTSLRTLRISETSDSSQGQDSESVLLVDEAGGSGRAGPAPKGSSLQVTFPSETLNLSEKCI

Assays:
EP2 receptor [1] = biological target: T1, EP2 receptor (Homo sapiens, UniProt P43116); assay: Butaprost-induced cAMP accumulation in PC3 cells; assay type: cell-based; parameters: PC3 cells express a substantially higher level of EP2 than DU145 and LNCap cells; endogenous in cells; host or cells: PC3 cells; details: read-out: KB for inhibition of butaprost-induced cAMP accumulation
Text: PGE2/EP2 signaling has been recognized to play important roles in mediating tumor progression and tumor-associated angiogenesis.

EP2 receptor [2] = biological target: T1, EP2 receptor; assay: Schild regression of PGE2-induced EP2 activation in C6G-EP2 cells; assay type: cell-based; parameters: expressed in transfected cells; host or cells: C6G-EP2 cells
Experimental: (§1) Information on the modality of antagonism can be obtained by performing Schild regression analysis characterized by: log (dr−1)=log XB−log KB. In the equation, dose ratio (dr)=fold shift in EC50, XB=[antagonist], KB=equilibrium dissociation constant for the antagonist-receptor complex. […] Thus, a lower KB value indicates a higher inhibitory potency.
To perform the Schild regression, C6G-EP2 cells were incubated first with vehicle, 0.01, 0.1 or 1 μM of test compound for 5 minutes, then with increasing concentrations of PGE2 to activate the EP2 receptor.

C6G cells = assay: CellTiter-Glo luminescent cell viability assay (cytotoxicity)
EP4 receptor = EP4 receptor (Homo sapiens, UniProt P35408); assay: Schild regression analysis for EP4 receptor; assay type: cell-based
Text: as §1

[3] = system: mice after pilocarpine-induced status epilepticus; details: mouse, in vivo
[4] = system: rat primary hippocampal cultures; assay: NMDA-induced LDH release (excitotoxicity) in primary hippocampal cultures; assay type: cell-based; details: read-out: NMDA-induced LDH release, % of control
Text: Excitotoxicity caused by NMDA receptor activation is recognized to induce neuronal apoptosis both in vitro and in vivo in cortical neurons. NMDA receptor activation can, via COX-2, cause prostaglandin production, including PGE2. Activation of the EP2 receptor by PGE2 in microglia can promote neuroinflammation in several models of neurodegenerative diseases. The effect of EP2 antagonist compounds were examined on NMDA-induced excitotoxicity. Rat primary hippocampal cultures (DIV13-15) were preincubated with vehicle or increasing concentrations of test compound for 15-20 min, followed by treatment with NMDA (30 μM) plus glycine (10 μM) overnight in continued presence of the test compound. Lactate dehydrogenase (LDH) release was used as the measure of neuronal injury.

[5] = system: IL-1β, IL-6, TNFα, CCL2, CCL3, CCL4, CXCL10 mRNA; details: mouse, in vivo
in vitro = details: rat

COc1cc(C=CC(=O)NCCn2c(C)cc3ccccc32)cc(OC)c1OC [A1, N-(2-(2-methyl-1H-indol-1-yl)ethyl)-3-(3,4,5-trimethoxyphenyl)acrylamide]
Kb (EP2 receptor [1]): 0.0181 µM

COc1cc(CC(=O)NCCn2c(C)cc3ccccc32)cc(OC)c1OC [TG7-128]
Kb (EP2 receptor [2]; read-out: EP2 KB): 680 nM

COc1cc(CCC(=O)NCCn2c(C)cc3ccccc32)cc(OC)c1OC [1l, N-(2-(2-methyl-1H-indol-1-yl)ethyl)-3-(3,4,5-trimethoxyphenyl)propanamide]
Therapeutic index (in vitro), CC50/KB for EP2 (C6G cells): 1,860 | Selective index, KB EP4/KB EP2 (EP4 receptor): 85 | Kb (EP2 receptor [2]; read-out: KB (nM) EP2, from Schild regression analysis): 214 nM

COc1cc(/C=C/C(=O)NCCn2c(C(F)(F)F)cc3ccccc32)cc(OC)c1OC [1h, N-(2-(2-(trifluoromethyl)-1H-indol-1-yl)ethyl)-3-(3,4,5-trimethoxyphenyl)acrylamide]
Leakage of plasma albumin into the cortex (Western blot) [3]: significantly prevented | Status epilepticus-induced mortality rate [3]: reduced | Reduction of SE-induced neurodegeneration in CA1 ([3]; ip, 5 mg/kg): 66% | Reduction of SE-induced neurodegeneration in CA3 ([3]; ip, 5 mg/kg): 52% | Reduction of SE-induced neurodegeneration in hilus ([3]; ip, 5 mg/kg): 55% | activity at 10 µM [4]: 72% | Blunting of SE-induced cytokine and chemokine induction, average [5]: 54% | CC50 (in vitro): 81 µM | Kb (EP2 receptor [2]): 21.4 nM
